Experiment [1] deals with T1, Nuclear receptor subfamily 1 group D member 1 (Homo sapiens, UniProt P20393).
T1 sequence (P20393 whole entry): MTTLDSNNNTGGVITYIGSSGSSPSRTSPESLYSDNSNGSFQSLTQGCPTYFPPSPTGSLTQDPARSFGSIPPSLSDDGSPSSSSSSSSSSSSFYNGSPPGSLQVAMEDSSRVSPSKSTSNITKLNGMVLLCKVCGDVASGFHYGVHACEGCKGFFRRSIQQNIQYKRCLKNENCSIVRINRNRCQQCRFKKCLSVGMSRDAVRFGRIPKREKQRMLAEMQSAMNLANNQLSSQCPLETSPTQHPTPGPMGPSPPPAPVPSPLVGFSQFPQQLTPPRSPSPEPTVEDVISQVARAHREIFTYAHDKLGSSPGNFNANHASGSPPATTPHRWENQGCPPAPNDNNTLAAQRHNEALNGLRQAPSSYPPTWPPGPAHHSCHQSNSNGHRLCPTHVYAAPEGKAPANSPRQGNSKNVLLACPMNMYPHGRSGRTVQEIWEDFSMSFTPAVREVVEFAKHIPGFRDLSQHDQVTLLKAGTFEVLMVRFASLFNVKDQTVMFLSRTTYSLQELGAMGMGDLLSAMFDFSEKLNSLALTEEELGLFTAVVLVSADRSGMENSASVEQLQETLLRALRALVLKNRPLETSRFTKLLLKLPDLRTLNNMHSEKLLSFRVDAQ
The experiment in a line: Increased REV-ERB-alpha LBD dependent repressor activity in HEK293 cell reporter assay. In kind it is cell-based. For orientation: A reporter such as luciferase makes a cellular process visible.

Experiment [2] deals with T1, Nuclear receptor subfamily 1 group D member 1. The experiment can be described thus: REV-ERB-alpha mediated transcriptional suppression at Bmal1 promoter in HEK293 cell reporter assay. In kind it is functional, cell-based.
For experiment [3] the target is unchanged. The experiment in a line: Dissociation constant for binding to REV-ERB-alpha by circular dichroism. A general note: Circular dichroism is widely used to follow secondary structure.

For `CCOC(=O)N1CCC(CN(Cc2ccc(Cl)cc2)Cc2ccc([N+](=O)[O-])s2)C1` (stereo not drawn) [SR9009], the IC50 in experiment [1] was 670 nM (agonist); in experiment [2] it was 710 nM (agonist). In experiment [3], this compound returned a dissociation constant Kd of 800 nM.

As a reminder, the IC50 is the concentration that gives 50% inhibition. What is called Kd is the concentration at which binding is half-saturated.

(Values after ChEMBL document CHEMBL1961794, “Regulation of circadian behaviour and metabolism by synthetic REV-ERB agonists” (Nature, 2012).)
